Columns and labels:
SNORF25 [1] = target: T1, SNORF25 (Homo sapiens, UniProt Q8TDV5); assay: Stimulation of cAMP release by CHO cells stably expressing hSNORF25 receptors; format: cell-based
Experimental: CHO cells are grown on 150 mm plates in HAM's F-12 medium with supplements (10% bovine calf serum, 4 mM L-glutamine and 100 units/ml penicillin/100 μg/ml streptomycin) at 37° C., 5% CO2. Stock plates of CHO cells are trypsinized and split 1:8 every 3–4 days.
Heterologous DNA can be stably incorporated into host cells, causing the cell to perpetually express a foreign protein. Methods for the delivery of the DNA into the cell are similar to those described above for transient expression but require the co-transfection of an ancillary gene to confer drug resistance on the targeted host cell. The ensuing drug resistance can be exploited to select and maintain cells that have taken up the DNA. […]
The receptor-mediated stimulation or inhibition of cyclic AMP (cAMP) formation may be assayed in cells expressing the receptors. […] The plates are stored at 4° C. for 15 min, and the cAMP content in the stopping solution is measured by radioimmunoassay. Radioactivity may be quantified using a gamma counter equipped with data reduction software. […]
According to a second method, cells are washed 2 times with HEPES buffered saline, as described above, and incubated overnight. […] The plates are stored at 4° C. for 15 min, and the cAMP content in the stopping solution is measured by radioimmunoassay. Radioactivity may be quantified using a gamma counter equipped with data reduction software. […]

The chains behind the UniProt entries cited, without tags or fusion partners.
UniProt Q8TDV5, whole entry: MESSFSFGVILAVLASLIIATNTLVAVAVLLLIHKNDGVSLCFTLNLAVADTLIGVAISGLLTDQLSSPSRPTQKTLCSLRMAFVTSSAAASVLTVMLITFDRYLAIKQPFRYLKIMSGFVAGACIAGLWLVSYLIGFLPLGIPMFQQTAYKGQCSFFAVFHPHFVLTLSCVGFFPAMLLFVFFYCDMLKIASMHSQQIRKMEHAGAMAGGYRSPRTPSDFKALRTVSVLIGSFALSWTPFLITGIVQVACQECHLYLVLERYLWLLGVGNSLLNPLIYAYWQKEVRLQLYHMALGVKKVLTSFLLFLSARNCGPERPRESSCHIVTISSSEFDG

SNORF25 [2] = target: T1, SNORF25; assay: CFTR Cl- currents in Xenopus oocytes co-injected with SNORF25 and CFTR mRNA; settings: 10 μM; oocytes with SNORF25 and CFTR mRNA (FIG. 12A)

## CCCCCCCCCCCCCCCCCCOC[C@H](COP(=O)([O-])OCC[N+](C)(C)C)OC(C)=O
SNORF25 [1]; maximum response as % of maximum response produced by PAF(C18) (taken as 100%)
  % of PAF(C18) Response: 100%
SNORF25 [1]; mean ± S.E.M., at least 3 experiments, CHO cells stably expressing hSNORF25
  EC50: 537 nM
SNORF25 [2]
  CFTR current response: robust responses
